Counter-ions that a name gives are not always drawn.
System: Guinea Pig Ileum
Assay: Guinea pig ileum assay - tonic contraction (K+-induced contraction of longitudinal muscle; calcium channel blocking activity)
Format: cell-based
Conditions: Cavia porcellus, inhibition of tonic contraction by 50%, K+ challenge 80 mM for 2 minutes, compound 2 minutes prior and during, Tyrode's Solution 37° C.
Procedure: GUINEA PIG ILEUM ASSAY--TONIC CONTRACTION
Male guinea-pigs weighing from 300-400 grams were stunned and bled. The abdomen was opened and 10-15 cm of terminal ileum was carefully removed and cleaned and placed in Tyrode's Solution of the following composition: NaCl (8 g/l), KCl (0.2 g/l), MgCl2 (0.2 g/l.), CaCl2 (0.2 g/l), NaH2 PO4 (0.05 g/l), NaHCO3 (1.0 g/l) and Glucose (1 g/l). The solution was maintained at 37° C. and gassed with 95% O2 and 5% CO2. Portions of the ileum were placed over a glass rod, a shallow incision was made the length of the mesenteric attachment just severing the outer-longitudinal muscle layer. The longitudinal muscle was separated from the underlying circular muscle by gentle dissection (Rang, H. P. Annals of N.Y. Academy of Science Vol. 144, page 756, (1964)). The tissue was fixed at one end to a tissue holder, the other end was connected by a thread to a force transducer and suspended in a muscle bath containing Tyrode's Solution maintained at 37° C. and gassed with 95% O2 and 5% CO2. An initial tension of 500 mg was applied and the tissue allowed to equilibrate for 60 minutes prior to the start of the study. During this period the tissue was washed every 16 minutes. Each preparation, at 16 minute intervals, was challenged with KCl sufficient to yield a bath K^+ concentration of 80 mMK for 2 minutes, then washed with fresh solution. […]

IC50: 0.25 µM
Structure (SMILES): COc1ccc([C@@H]2Sc3ccccc3N(CCN(C)C)C(=O)[C@@H]2OC(C)=O)cc1 [E, diltiazem hydrochloride, reference compound]
